Screens from PubChem BioAssay.
Only some compounds are listed: those with a hit (about 2.2% of all), similar ones and a draw of the others.
ERp5 block: blocks human ERp5 reductase activity on insulin; 350,000 compounds, 0.05% hits; inhibition, % at 9.99 µM; ERp5 insulin aggregation, absorbance 650 nm, 90 min; Q15084;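 active means mean replicate inhibition above about 25%, with every replicate also reaching it, limit read from the data, passing the limit was not always enough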
FGF22 binding: FGF22 (human) thermal shift binding; Q9HCT0; recombinant FGF22 thermal shift, SYPRO orange fluorescence; percent of sucrose octasulfate shift, DMSO zero; activity (Tm shift, normalised), % at 9.99 µM; 340,000 compounds, 1.5% hits;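 active means mean Tm shift, scaled 0 neutral to 100 positive control, at about 1.3% or above, every replicate too, limit read from the data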
PDI turbidity: inhibitors of human protein disulfide isomerase | 350,000 compounds, 0.052% hits | P07237 | PDI insulin aggregation turbidity, A650, 90 min | inhibition, % at 10 µM;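 active means mean inhibition across replicates of 30% or more, whatever share of single replicates reach that level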
SIRT5 inh: sirtuin-5 (human) deacylase inhibition; Q9NXA8; Purified SirT5, succinyl-peptide AMC, trypsin-coupled fluorescence; inhibition, % at 15 µM; 330,000 compounds, 1.1% hits; AID 652115; in the data active means inhibition above about 15%
Yeast UUG start: yeast start codon fidelity modulation | S. cerevisiae UUG-firefly luciferase reporter, luminescence/redox ratio | activity score, % at 18.7 µM | hit rate 0.13% among 350,000 | AID 602363;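 active means replicate mean at a twofold rise or more, about +100% in these data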;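 further: firefly luciferase made from a UUG start codon reports start codon fidelity; reporter light over untreated wells divided by growth signal over untreated wells; some hits fall short of that in this replicate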
S100A4 MyoIIA: inhibitors of human S100A4 binding to myosin IIA peptide. P26447. S100A4/TAMRA-MyoIIA peptide fluorescence polarization. AID 652163. 360,000 compounds, 0.14% hits. inhibition, % at 10.7 µM;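 active means mean inhibition of at least 70% across replicates, with every replicate also reaching that level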
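System – human S100A4 monomer protein, biochemical binding assay · Buffer or medium – Calcium-containing HEPES buffer, pH 7.2 · Timing – 5 min between mix addition and reading · Also added – TAMRA-labelled myosin IIA heavy-chain peptide probe, 5 nM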
A number is an active result; . = inactive; / = no result given.

SMILES | ERp5 block | FGF22 binding | PDI turbidity | SIRT5 inh | Yeast UUG start | S100A4 MyoIIA
O=C(CN(C(=O)c1csnn1)c1ccc(Cl)cc1)NC1CCCC1 | . | . | . | . | . | .
CC(=O)c1ccc(N(CC(=O)NC2CCCC2)C(=O)c2csnn2)cc1 | . | 44 | . | . | . | .
Cc1cc(Cl)ccc1OC(C)C(=O)Nc1ccc(C(=O)Nc2ccccc2C(=O)O)cc1 (stereo unspecified) | . | 1.4 | . | . | . | .
Cc1cc(Cl)ccc1OC(C)C(=O)Nc1ccc(S(=O)(=O)N2CCOCC2)cc1 (stereo unspecified) | . | . | . | . | . | .
Cc1ccccc1CC1(CO)CCCN(Cc2ccc(C#CC(C)(C)O)cc2)C1 (stereo unspecified) | . | 43 | . | . | / | .
CC(C)(O)C#Cc1ccc(CN2CCCC(CO)(Cc3cccc(Cl)c3)C2)cc1 (stereo unspecified) | . | . | . | . | / | .
O=C(O)COc1ccccc1/C=N/NC(=O)CSc1nc2ccccc2n1Cc1ccc(Cl)cc1 | . | 1.4 | . | . | . | .
O=C(CSc1nc2ccccc2n1Cc1ccc(Cl)cc1)N/N=C/c1ccccc1C(=O)O | . | . | . | . | / | .
C[C@@H]1CCCCO[C@@H](CN(C)C(=O)Nc2cccc3ccccc23)[C@H](C)CN([C@H](C)CO)C(=O)c2cc(NC(=O)Nc3ccc(C(F)(F)F)cc3)ccc2O1 | . | . | / | . | . | .
CC1NC2(C(=O)N(Cc3ccccc3)c3ccccc32)C2C(=O)N(c3ccccc3)C(=O)C12 (stereo unspecified) | . | . | . | . | . | 86
Cc1ccc([C@@H]2[C@@H]3C(=O)N(c4ccccc4)C(=O)[C@@H]3[C@]3(C)C(=O)N(Cc4ccccc4)CC(=O)N23)o1 | . | . | . | . | . | .
Cc1occc1-c1n[nH]c(=S)n1C | . | 43 | . | . | / | .
Cc1cccc(NC(=O)CN2C(=O)N/C(=C/c3cc(C)n(C)c3C)C2=O)c1 | . | 44 | . | . | / | .
CN(C)C(CNC(=O)CCNC(=O)c1ccc(Cl)cc1)c1ccco1 (stereo unspecified) | . | . | . | 24 | . | .
CN(C)C(CNC(=O)CCNC(=O)c1ccc(Br)cc1)c1ccco1 (stereo unspecified) | . | . | . | . | . | .
COc1ccc(S(=O)(=O)Nc2ccc3c(c2)C(=O)N([C@H](C)CO)C[C@H](C)[C@@H](CN(C)C(=O)Nc2ccc(F)cc2)OCCCC[C@@H](C)O3)cc1 | . | . | / | . | . | .
CCOC(=O)c1cc(C#N)c(SCC(=O)O)[nH]c1=O | . | 45 | . | . | / | .
CCOC(=O)c1cc(C#N)c(SCC(=O)Nc2ccc(C(C)=O)cc2)[nH]c1=O | . | 1.4 | . | . | / | .
CC(C)C#Cc1cnc2c(c1)C(=O)N([C@H](C)CO)C[C@@H](C)[C@H](CN(C)Cc1cncnc1)O2 | . | . | / | . | / | .
Cc1ccc2nc(/C(C#N)=C/c3ccccc3C(=O)O)[nH]c2c1 | . | . | . | . | . | .
Cc1ccc2nc(/C(C#N)=C/c3ccc(O)c(O)c3)[nH]c2c1 | . | . | . | 20 | . | .
Cc1ccc(S(=O)(=O)Nc2ccc3c(c2)C(=O)N([C@H](C)CO)C[C@@H](C)[C@H](CN(C)C(=O)C2CCCCC2)OCCCC[C@@H](C)O3)cc1 | . | / | / | . | . | .
CC1=Nc2ccccc2N=C(NC(=O)c2ccccc2)C1c1ccc(Cl)cc1 (stereo unspecified) | . | . | . | . | . | .
CC1=Nc2ccccc2N=C(N)C1c1ccccc1 (stereo unspecified) | . | 44 | . | . | / | .
O=C(C[C@H]1CC[C@H]2[C@@H](COC[C@@H](O)CN2C(=O)c2ccccc2)O1)N1CCOCC1 | . | . | / | . | / | .
CC(=O)OC[C@H]1O[C@@H](Oc2cc(O)cc3oc(-c4ccc(O)cc4)cc(=O)c23)[C@H](O[C@@H]2O[C@@H](C)[C@H](O)[C@@H](O)[C@H]2O)[C@@H](O)[C@@H]1O | . | . | 39 | / | . | .
Cc1ccc(NC(=O)COc2cccc(/C=C3\SC(=S)N(CCC(=O)O)C3=O)c2)cc1Cl | . | . | . | 27 | / | .
